The text below walks through data of publication PMC10354740 (2022).

By UniProt entry, the sequences of proteins in these tests, tags left out.
UniProt P0DMS8, whole entry: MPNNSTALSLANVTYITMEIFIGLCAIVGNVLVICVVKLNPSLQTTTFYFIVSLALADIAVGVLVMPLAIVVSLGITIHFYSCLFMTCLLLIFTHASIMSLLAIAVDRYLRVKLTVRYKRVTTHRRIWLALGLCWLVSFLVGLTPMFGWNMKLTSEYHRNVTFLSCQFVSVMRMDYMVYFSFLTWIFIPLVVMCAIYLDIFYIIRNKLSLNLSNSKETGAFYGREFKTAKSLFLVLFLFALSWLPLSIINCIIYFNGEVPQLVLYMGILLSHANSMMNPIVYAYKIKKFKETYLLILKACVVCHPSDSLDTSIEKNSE
UniProt P41595, whole entry, species assumed: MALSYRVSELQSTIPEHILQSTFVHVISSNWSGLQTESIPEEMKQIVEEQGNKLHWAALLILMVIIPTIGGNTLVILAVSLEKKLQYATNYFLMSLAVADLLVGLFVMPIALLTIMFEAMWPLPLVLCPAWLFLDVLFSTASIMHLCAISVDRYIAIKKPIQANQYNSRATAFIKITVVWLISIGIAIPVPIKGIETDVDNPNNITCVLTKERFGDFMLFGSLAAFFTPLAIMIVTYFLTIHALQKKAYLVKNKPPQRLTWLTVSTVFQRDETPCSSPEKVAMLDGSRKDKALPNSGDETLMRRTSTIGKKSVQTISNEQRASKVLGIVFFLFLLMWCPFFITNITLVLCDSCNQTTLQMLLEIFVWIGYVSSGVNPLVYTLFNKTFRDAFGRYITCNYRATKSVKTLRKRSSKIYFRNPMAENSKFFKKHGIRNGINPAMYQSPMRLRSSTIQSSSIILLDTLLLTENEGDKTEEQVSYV

One assay has as its target hA3AR (Homo sapiens, UniProt P0DMS8). Conditions: modulator 0.1 μM.
The target of another assay is 5HT2B (Homo sapiens, UniProt P41595). Nature of the assay: biochemical.

Consider `COC(=O)/C=C/c1ccc(Nc2nc3ccccc3c3[nH]c(C4CCCCC4)nc23)cc1` [Compound 37, Methyl (E)-3-(4-((2-cyclohexyl-1H-imidazo[4,5-c]quinolin-4-yl)amino)phenyl)acrylate], for which the “enhancement of agonist efficacy at 0.1 μM” value on hA3AR is recorded as “significantly enhanced agonist efficacy”.

Usually Ki stands for the dissociation constant of the complex between target and ligand, obtained from inhibition or displacement. The compound `CCCC(CCC)c1nc2c(Nc3ccc(I)cc3)nc3ccccc3c2[nH]1` [Compound 39, 2-(Heptan-4-yl)-N-(4-iodophenyl)-1H-imidazo[4,5-c]quinolin-4-amine] came in with an inhibitory constant (Ki) on 5HT2B of 2600 nM.
